Amino acid sequences for entries named in this document (tags omitted). Residues count along the entry.
UniProt P28335, 33-458 I156V/N158S/I160V limits assumed: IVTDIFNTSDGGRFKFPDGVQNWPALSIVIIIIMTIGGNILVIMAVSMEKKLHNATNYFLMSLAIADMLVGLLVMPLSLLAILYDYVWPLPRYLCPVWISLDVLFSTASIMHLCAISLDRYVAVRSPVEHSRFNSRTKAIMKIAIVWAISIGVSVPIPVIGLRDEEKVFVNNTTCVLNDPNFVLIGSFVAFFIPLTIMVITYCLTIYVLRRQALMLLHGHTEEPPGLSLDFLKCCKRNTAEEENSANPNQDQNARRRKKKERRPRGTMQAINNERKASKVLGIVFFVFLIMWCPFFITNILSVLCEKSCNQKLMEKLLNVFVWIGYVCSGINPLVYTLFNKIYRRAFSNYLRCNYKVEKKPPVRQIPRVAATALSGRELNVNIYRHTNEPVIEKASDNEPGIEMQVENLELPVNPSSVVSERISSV

According to patent publication US20250059184A1 (priority 2021, published 2025):

Legend:
[1] = biological target: human recombinant 5-HT2Cedited receptor (Homo sapiens, UniProt P28335, I156V/I160V/N158S); test: Serotonin 5-HT2C in vitro cellular IPOne agonism assay (HTRF); conditions: read-out: 5-HT2C IPOne Agonism Activity; CHO-K1 cells, agonist mode
[2] = biological target: 5-HT2Cedited (accession number AAF35842.1) (Homo sapiens, UniProt P28335, I156V/I160V/N158S); test: Serotonin 5-HT2C in vitro radioligand binding competition assay ([3H]-DOI); conditions: read-out: 5-HT2C Radioligand Binding Activity; [3H]-DOI radiotracer, membrane extracts

Row | SMILES | EC50 [1] [µM] | IC50 [2] [µM]
1 | NCCc1cnn2ccccc12 [Compound 47, 2-(Pyrazolo[1,5-a]pyridin-3-yl)ethan-1-amine] | 1 to 10 | 1 to 10
2 | CC(Cc1ncc2ccccn12)N1CCOCC1 (stereo not drawn) [Compound 28, 4-(1-(Imidazo[1,5-a]pyridin-3-yl)propan-2-yl)morpholine] | > 10 | > 10
3 | CC(N)Cc1cnc2cc(F)ccn12 (stereo not drawn) [Compound 35, 1-(7-Fluoroimidazo[1,2-a]pyridin-3-yl)propan-2-amine] | > 10 | > 10
4 | CC(Cc1cnn2ccccc12)N(C)C (stereo not drawn) [Compound 50, N,N-dimethyl-1-(pyrazolo[1,5-a]pyridin-3-yl)propan-2-amine] | 1 to 10 | 1 to 10
5 | CC(Cc1cnc2ccccn12)N(C)C (stereo not drawn) [Compound 36, 1-(imidazo[1,2-a]pyridin-3-yl)-N,N-dimethylpropan-2-amine] | > 10 | > 10
6 | CC(N)Cc1ncc2ccccn12 (stereo not drawn) [Compound 2, 1-(imidazo [1,5-a]pyridin-3-yl)propan-2-amine] | 0.01 to 0.1 | 0.101 to 1
7 | COc1ccn2c(CC(C)N)cnc2c1 (stereo not drawn) [Compound 34, 1-(7-methoxyimidazo[1,2-a]pyridin-3-yl)propan-2-amine] | > 10 | > 10
8 | Cc1nc(CC(C)N)n2ccccc12 (stereo not drawn) [Compound 11, 1-(1-methylimidazo[1,5-a]pyridin-3-yl)propan-2-amine] | 0.101 to 1 | 0.101 to 1
9 | CC(C)NC(C)Cc1ncc2ccccn12 (stereo not drawn) [Compound 26, 1-(imidazo [1,5-a]pyridin-3-yl)-N-isopropylpropan-2-amine] | > 10 | 1 to 10
10 | c1ccn2c(C3CCNC3)ncc2c1 (stereo not drawn) [Compound 12, 3-(Pyrrolidin-3-yl)imidazo[1,5-a]pyridine] | 1 to 10 | 1 to 10
11 | CC(C)(N)Cc1ncc2ccccn12 [Compound 6, 1-(imidazo [1,5-a]pyridin-3-yl)-2-methylpropan-2-amine] | 1 to 10 | 1 to 10
12 | CN(C)C(C)(C)Cc1ncc2ccccn12 [Compound 19, 1-(imidazo [1,5-a]pyridin-3-yl)-N,N,2-trimethylpropan-2-amine] | > 10 | 1 to 10
13 | Cc1ccn2c(CC(C)N(C)C)ncc2c1 (stereo not drawn) [Compound 22, N,N-dimethyl-1-(7-methylimidazo [1,5-a]pyridin-3-yl)propan-2-amine] | > 10 | > 10
14 | Cc1cccc2cnc(CC(C)N(C)C)n12 (stereo not drawn) [Compound 20, N,N-dimethyl-1-(5-methylimidazo [1,5-a]pyridin-3-yl)propan-2-amine] | > 10 | 1 to 10
15 | Cc1nc(CCN(C)C)c2ccccn12 [Compound 45, N,N-dimethyl-2-(3-methylimidazo [1,5-a]pyridin-1-yl)ethan-1-amine] | 1 to 10 | 1 to 10
16 | CN(C)CCc1cnn2ccccc12 [Compound 49, N,N-dimethyl-2-(pyrazolo[1,5-a]pyridin-3-yl)ethan-1-amine] | 1 to 10 | 1 to 10
17 | COc1ccn2c(CC(C)N)ncc2c1 (stereo not drawn) [Compound 3, 1-(7-methoxyimidazo[1,5-a]pyridin-3-yl)propan-2-amine] | 1 to 10 | > 10
18 | Cc1nc(CC(C)N)c2ccc(F)cn12 (stereo not drawn) [Compound 42, 1-(6-fluoro-3-methylimidazo[1,5-a]pyridin-1-yl)propan-2-amine] | 1 to 10 | 1 to 10
19 | NCCc1ncn2ccccc12 [Compound 39, 2-(Imidazo[1,5-a]pyridin-1-yl)ethan-1-amine] | 0.101 to 1 | 0.101 to 1
20 | Cc1nc(CCN)c2ccccn12 [Compound 41, 2-(3-methylimidazo[1,5-a]pyridin-1-yl)ethan-1-amine] | 1 to 10 | 1 to 10
21 | CC(N)Cc1ncc2cc(F)ccn12 (stereo not drawn) [Compound 4, 1-(7-fluoroimidazo[1,5-a]pyridin-3-yl)propan-2-amine] | 1 to 10 | –
22 | Cc1ccn2c(CC(C)N)ncc2c1 (stereo not drawn) [Compound 9, 1-(7-methylimidazo[1,5-a]pyridin-3-yl)propan-2-amine] | 1 to 10 | 1 to 10
23 | CC(N)Cc1cnc2ccccn12 (stereo not drawn) [Compound 33, 1-(imidazo[1,2-a]pyridin-3-yl)propan-2-amine] | > 10 | > 10
24 | CC(Cc1ncc2ccccn12)N(C)C (stereo not drawn) [Compound 15, 1-(imidazo [1,5-a]pyridin-3-yl)-N,N-dimethylpropan-2-amine] | 1 to 10 | 1 to 10
25 | COc1ccn2c(CC(C)N(C)C)ncc2c1 (stereo not drawn) [Compound 16, 1-(7-methoxyimidazo[1,5-a]pyridin-3-yl)-N,N-dimethylpropan-2-amine] | > 10 | > 10

Row | SMILES | EC50 [1] [µM] | IC50 [2] [µM]
26 | CN(C)CCc1ncn2ccccc12 [Compound 43, 2-(imidazo [1,5-a]pyridin-1-yl)-N,N-dimethylethan-1-amine] | > 10 | 1 to 10
27 | Cc1cccn2c(CC(C)N(C)C)ncc12 (stereo not drawn) [Compound 21, N,N-dimethyl-1-(8-methylimidazo [1,5-a]pyridin-3-yl)propan-2-amine] | 1 to 10 | 1 to 10
28 | Cc1nc(CC(C)N(C)C)n2ccc(F)cc12 (stereo not drawn) [Compound 18, 1-(7-fluoro-1-methylimidazo [1,5-a]pyridin-3-yl)-N,N-dimethylpropan-2-amine] | > 10 | 1 to 10
29 | NCCc1ncc2ccccn12 [Compound 1, 2-(imidazo[1,5-a]pyridin-3-yl)ethan-1-amine] | 1 to 10 | 0.101 to 1
30 | Cc1nc(CC(C)N(C)C)n2ccccc12 (stereo not drawn) [Compound 24, N,N-dimethyl-1-(1-methylimidazo [1,5-a]pyridin-3-yl)propan-2-amine] | 1 to 10 | 0.101 to 1
31 | CC(Cc1ncc2ccccn12)N1CCCC1 (stereo not drawn) [Compound 27, 3-(2-(pyrrolidin-1-yl)propyl)imidazo[1,5-a]pyridine] | > 10 | 1 to 10
32 | Cc1nc(CC(C)N)n2ccc(F)cc12 (stereo not drawn) [Compound 5, 1-(7-fluoro-1-methylimidazo [1,5-a]pyridin-3-yl)propan-2-amine] | 0.101 to 1 | 0.101 to 1
33 | CC(N)Cc1ncn2ccccc12 (stereo not drawn) [Compound 40, 1-(imidazo[1,5-a]pyridin-1-yl)propan-2-amine] | 1 to 10 | 1 to 10
34 | CCN(CC)C(C)Cc1ncc2ccccn12 (stereo not drawn) [Compound 25, N,N-diethyl-1-(imidazo[1,5-a]pyridin-3-yl)propan-2-amine] | > 10 | > 10
35 | CN1CCCC1Cc1ncc2ccccn12 (stereo not drawn) [Compound 31, 3-((1-Methylpyrrolidin-2-yl)methyl)imidazo[1,5-a]pyridine] | > 10 | 1 to 10
36 | CN(C)CCc1ncc2ccccn12 [Compound 14, 2-(Imidazo[1,5-a]pyridin-3-yl)-N,N-dimethylethan-1-amine] | 1 to 10 | 1 to 10
37 | C[C@@H](Cc1ncc2ccccn12)N(C)C [Compound 29, (S)-1-(imidazo[1,5-a]pyridin-3-yl)-N,N-dimethylpropan-2-amine] | > 10 | > 10
38 | COc1ccn2c(CC(C)N(C)C)cnc2c1 (stereo not drawn) [Compound 37, 1-(7-Methoxyimidazo[1,2-a]pyridin-3-yl)-N,N-dimethylpropan-2-amine] | > 10 | > 10
39 | Cc1ccc2cnc(CC(C)N)n2c1 (stereo not drawn) [Compound 10, 1-(6-methylimidazo[1,5-a]pyridin-3-yl)propan-2-amine] | 0.101 to 1 | 0.101 to 1
40 | CC(Cc1cnc2cc(F)ccn12)N(C)C (stereo not drawn) [Compound 38, 1-(7-Fluoroimidazo[1,2-a]pyridin-3-yl)-N,N-dimethylpropan-2-amine] | > 10 | > 10
41 | CC(N)Cc1cnn2ccccc12 (stereo not drawn) [Compound 48, 1-(pyrazolo[1,5-a]pyridin-3-yl)propan-2-amine] | 0.101 to 1 | 0.101 to 1
42 | CC(Cc1ncc2cc(F)ccn12)N(C)C (stereo not drawn) [Compound 17, 1-(7-fluoroimidazo[1,5-a]pyridin-3-yl)-N,N-dimethylpropan-2-amine] | > 10 | 1 to 10
43 | CN1CCC(c2ncc3ccccn23)C1 (stereo not drawn) [Compound 32, 3-(1-methylpyrrolidin-3-yl)imidazo[1,5-a]pyridine] | 1 to 10 | 1 to 10
44 | CC(Cc1ncn2ccccc12)N(C)C (stereo not drawn) [Compound 44, 1-(imidazo [1,5-a]pyridin-1-yl)-N,N-dimethylpropan-2-amine] | > 10 | 1 to 10
45 | Cc1nc(CC(C)N(C)C)c2ccc(F)cn12 (stereo not drawn) [Compound 46, 1-(6-fluoro-3-methylimidazo [1,5-a]pyridin-1-yl)-N,N-dimethylpropan-2-amine] | 1 to 10 | 1 to 10
46 | Cc1cccc2cnc(CC(C)N)n12 (stereo not drawn) [Compound 7, 1-(5-methylimidazo[1,5-a]pyridin-3-yl)propan-2-amine] | 0.101 to 1 | 0.101 to 1
47 | Cc1cccn2c(CC(C)N)ncc12 (stereo not drawn) [Compound 8, 1-(8-methylimidazo[1,5-a]pyridin-3-yl)propan-2-amine] | 0.101 to 1 | 0.101 to 1
48 | Cc1ccc2cnc(CC(C)N(C)C)n2c1 (stereo not drawn) [Compound 23, N,N-dimethyl-1-(6-methylimidazo [1,5-a]pyridin-3-yl)propan-2-amine] | > 10 | 1 to 10
49 | c1ccn2c(CC3CCCN3)ncc2c1 (stereo not drawn) [Compound 13, 3-(Pyrrolidin-2-ylmethyl)imidazo[1,5-a]pyridine] | > 10 | > 10
50 | C[C@H](Cc1ncc2ccccn12)N(C)C [Compound 30, (R)-1-(imidazo[1,5-a]pyridin-3-yl)-N,N-dimethylpropan-2-amine] | > 10 | 1 to 10
